Experimental data: US20240269308A1, “PRODRUGS OF TOPOISOMERASE I INHIBITOR FOR ADC CONJUGATIONS AND METHODS OF USE THEREOF” (priority 2022, published 2024)

How the values were obtained:
NCI-N87 cells = assay: anti-Her2 viability assay, NCI-N87 cells (target positive); type: cell-based; settings: 6 days
Method: (§1) The anti-Her2 viability assay protocol is following.
(§2) 0.1% BSA was added to the Opti-MEM reduced serum media [Gibco, cat #31985-070]. This assay media was used for the dilution of ADC and free drug.
(§3) Cells were seeded in their growth media into 96 well plates (Thermo #136101) one day prior to adding ADCs: 1000/well SKBR3 cells in 80 uL media (target positive cells), 1000/well NCI-N87 cells in 80 uL media (target positive cells), 1000/well Calu-3 in 80 uL media (target positive cells), and 800/well NCI-H1975 cells in 80ul media (target negative cells).
(§4) Serial dilutions of free drug in 100% DMSO (1:4 10 pts starting from 100 uM) were prepared. Serially diluted payload was transferred into Opti-Mem with 0.1% BSA (10 uL into 990 uL media). Serial dilutions of ADCs/isotype controls at 1:4 in Opti-Mem with 0.1% BSA (starting from 5×1000 nM) were prepared. 20ul assay media diluted ADC/isotype conjugates as well as free drug were transferred to above cells. The plates were incubated at 37° C., 5% CO2 for 6 days. Plates were developed by adding 100ul CellTiter Glo 2.0. RT 5-10 min. Plates were read with Envision plate reader. Data was analyzed using Prism. Only inner 60 well are used for the assay. The edge wells were filled with media to prevent dry out.

NCI-H1975 cells = assay: anti-Her2 viability assay, NCI-H1975 cells (target negative); type: cell-based; settings: 6 days
Method: as §1, §2, §3, §4

SK-BR-3 cells = assay: SKBR3 cell-based anti-proliferation / viability assay (CellTiter-Glo); set-up: species or system human; settings: SKBR3 target positive cells, 6 days
Method: as §1, §2, §3
Serial dilutions of free drug in 100% DMSO (1:4 10 pts starting from 100 uM) were prepared. Serially diluted payload was transferred into Opti-Mem with 0.1% BSA (10 uL into 990 uL media). Serial dilutions of ADCs/isotype controls at 1:4 in Opti-Mem with 0.1% BSA (starting from 5×1000 nM) were prepared. […] Plates were read with Envision plate reader. Data was analyzed using Prism. […]
The cell line used in the anti-proliferation assays was SK-BR-3, a human breast, adenocarcinoma (pleural effusion) cell line; The cells were grown in McCoy's 5a Medium+10% FBS. […] After the plates were shaken for 10 min and then incubated for 10 min at room temperature, paste the clear bottom with white back seal and record luminescence with Envision. The inhibition % was calculated according to the following equation: inhibition %=[1-(assay-blank)/(control-blank)]×100.

Calu-3 = assay: anti-Her2 viability assay, Calu-3 cells (target positive); type: cell-based; settings: Calu-3 target positive cells, 6 days
Method: as §1, §2, §3, §4

JIMT-1 = assay: in vitro cell killing activity, JIMT-1 cells (CellTiter Glo viability); type: cell-based
Method: as §4

| Compound | N87 % Kill (NCI-N87 cells) | H1975 % Kill (NCI-H1975 cells) | IC50 (NCI-H1975 cells) | SKBR3 % Kill (SK-BR-3 cells) | IC50 (SK-BR-3 cells; CellTiter Glo) | Calu-3 % Kill (Calu-3) | IC50 (Calu-3) | IC50 (NCI-N87 cells) | IC50 (JIMT-1) | JIMT-1 % Kill (JIMT-1) |
| --- | --- | --- | --- | --- | --- | --- | --- | --- | --- | --- |
| CC[C@@]1(O)C(=O)OCc2c1cc1n(c2=O)Cc2c-1nc1cc(F)c(C)c3c1c2[C@@H](NC(=O)CO)CC3 [Dxd, reference compound] | 98.6% | – | – | – | – | – | – | – | – | – |
| CC[C@@]1(O)C(=O)OCc2c1cc1n(c2=O)Cc2c-1nc1cc(F)c(C)c3c1c2[C@@H](NC(=O)COCNC(=O)[C@@H](N)Cc1ccccc1)CC3 [P7, (2S)-2-amino-N-[({[(10S,23S)-10-ethyl-18-fluoro-10-hydroxy-19-methyl-5,9-dioxo-8-oxa-4,15-diazahexacyclo[14.7.1.0^2,14.0^4,13.0^6,11.0^20,24]tetracosa-1,6(11),12,14,16,18,20(24)-heptaen-23-yl]carbamoyl}methoxy)methyl]-3-phenylpropanamide] | 98.6% | – | – | – | – | – | – | – | – | – |
| Cont. DS8201a | 83.4% | 51.6% | 689 nM | 88.0% | 95.3 nM | 87.9% | 157 nM | 168 nM | > 400 nM | 44.7% |
